# Results published in patent US9821070B2 (OPKO Biologics Ltd., priority 2012, dated 2017).
# By UniProt entry, the sequences of proteins in these tests, tags left out. Residues count along the entry.
# UniProt P47871, 26-477: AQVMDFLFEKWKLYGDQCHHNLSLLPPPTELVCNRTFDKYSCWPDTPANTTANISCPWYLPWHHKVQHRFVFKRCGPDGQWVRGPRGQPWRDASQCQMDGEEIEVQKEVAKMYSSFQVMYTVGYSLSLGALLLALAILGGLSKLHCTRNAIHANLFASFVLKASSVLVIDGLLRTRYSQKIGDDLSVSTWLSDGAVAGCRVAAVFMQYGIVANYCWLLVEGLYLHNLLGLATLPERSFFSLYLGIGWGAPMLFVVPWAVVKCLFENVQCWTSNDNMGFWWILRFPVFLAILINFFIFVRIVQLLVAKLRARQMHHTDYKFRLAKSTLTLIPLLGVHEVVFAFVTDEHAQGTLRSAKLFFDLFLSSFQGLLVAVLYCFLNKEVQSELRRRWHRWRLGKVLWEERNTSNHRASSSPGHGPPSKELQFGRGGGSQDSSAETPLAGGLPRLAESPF
# Molecular target: glucagon receptor (Homo sapiens, UniProt P47871)
# Details: cAMP Hunter CHO-K1 GCGR
substance,measurement,value
Oxyntomodulin [OXM],higher glucagon receptor binding activation compared to the heterogeneous PEG30-FMS-OXM,11.1 fold
